Results as given in patent US20140079706A1 (published 2014).

B1: Mab 2F11 (antibody, V domains shown)
VH: QVQLKESGPGLVAPSQSLSITCTVSGFSLTTYDISWIRQSPGKGLEWLGVIWTDGGTNYNSPFMSRLSIRKDNSKSQVFLKMNRLQTDDTAIYYCVRDQRLYFDVWGAGTTVTVSS
VL: NIVMTQSPKSMSMSVGERVTLNCKASEDVNTYVSWYQQQPEQSPKLLIYGASNRYTGVPDRFTGGGSTTDFTLTISSVQAEDLADYFCGQSFSYPTFGTGTKLEIK
notes: Murine monoclonal antibody from hybridoma; also called <CSF-1R> Mab 2F11; muMab 2F11
B2: Mab 2E10 (antibody, V domains shown)
VH: QVQLKESGPGLVAPSKSLSITCTVSGSSLDSFDISWIRQSPGKGLEWLGVIWTGGGTNYNSGFMSRLRITKDNSKSQVLLKMNSLQSDDTAIYYCVRDPRLYFDVWGAGTTVTVSS
VL: B1 VL with N22S, N30V, Q39K, E41D, G65S, T68A, F87Y, S91T
notes: Murine monoclonal antibody; also called <CSF-1R> Mab 2E10
B3: Mab 2H7 (antibody, V domains shown)
VH: B2 VH with S40P, T70S, L79F, N83S
VL: B1 VL with N22S, N30V, Q39K, G65S, T68A, V78I, F87Y, S91T
notes: Murine monoclonal antibody
B4: Mab 1G10 (antibody, V domains shown)
VH: B1 VH with Q1R, T31S, T53S, D54G, S68R, R70S, N73D, K75R, M82V, Q99L
VL: KIVMTQSPKSMSVSVGERVSLSCKASEDVGTYVSWYQQKPEQSPKLLIYGSSNRYTGVPDRFTGSGSATDFTLTISSVQAEDLADYSCGQSFTYPTFGTGTKLEIK
notes: Murine monoclonal antibody
B5: hMab 2F11-e7 (antibody, V domains shown)
VH: QVQLVQSGAEVKKPGASVKVSCKASGYTFTSYDISWVRQAPGQGLEWMGVIWTDGGTNYAQKLQGRVTMTTDTSTSTAYMELRSLRSDDTAVYYCARDQRLYFDVWGQGTTVTVSS
VL: DIQMTQSPSSLSASVGDRVTITCRASEDVNTYVSWYQQKPGKAPKLLIYAASNRYTGVPSRFSGSGSGTDFTLTISSLQPEDFATYYCQQSFSYPTFGQGTKLEIK
B6: hMab 2F11-f12 (antibody, V domains shown)
VH: QVQLVQSGAEVKKPGSSVKVSCKASGFSLTTYDISWVRQAPGQGLEWMGVIWTDGGTNYNSPFMSRVTITKDESTSTAYMELSSLRSEDTAVYYCVRDQRLYFDVWGQGTTVTVSS
VL: B5 VL with A50G, N53S, R54L, Y55Q, T56S, Q89G

Biological target: T1, human wildtype CSF-1R (wt CSF-1R), full-length, on cells (human, UniProt P07333 20-972)
Assay: cell-based or functional assay

Binder | IC50 of inhibition of the survival of human monocytes (150 ng/ml huCSF-1, CellTiterGlo) [µg/mL]
B1 | 0.08
B2 | 0.06
B3 | 0.03
B4 | 0.06

Biological target: T1, human wildtype CSF-1R (wt CSF-1R), …
Assay: cell-based or functional assay
Remark: another data set of the same source

Binder | IC50 CSF-1R Phosphorylation [µg/mL]
B1 | 0.219
B2 | 0.752
B3 | 0.703
B4 | 0.0566

Biological target: T2, human CSF-1R fragment delD4 (comprising the extracellular subdomains D1-D3 and D5) (human, UniProt P07333 20-512)
T2 construct: Made from hCSF1R-delD4-V1-PreSc-hFc-His in Hek293, released from protein A column by PreScission protease; the dimeric form (pool 1) was used for all experiments; also called hCSF-1R-delD4
Assay: SPR Biacore T100, 25°C; reference-subtracted signal of the nonbinding antibody

Binder | binding signal [RU] before it was set as 0 [RU]
B1 | -3
B2 | -2
B3 | -9
B4 | -6

Biological target: human mutant CSF-1R L301S Y969F, full-length, on NIH 3T3 cells (human, UniProt P07333 20-972)
Assay: cell-based or functional assay

Binder | Mutant CSF-1R IC50 (cell viability, CellTiterGlo, 3D spheroids) [µg/mL]
B1 | 8
B2 | 4.9
B3 | 5.3
B4 | 14.2

Biological target: T1, human wildtype CSF-1R (wt CSF-1R), …
Assay: cell-based or functional assay
Remark: another data set of the same source

Binder | wtCSF-1R IC50 (cell viability, CellTiterGlo, 3D spheroids) [µg/mL]
B1 | 1.1
B2 | 0.49
B3 | 0.31
B4 | 0.29

Biological target: T2, human CSF-1R fragment delD4 (comprising …)
Assay: SPR Biacore T100, 25°C; antigen amine-coupled, antibody 10 nM

Binder | Binding to delD4 [RU]
B1 | 0
B2 | 0
B3 | 0
B4 | 0

Biological target: T3, human CSF-1R Extracellular Domain (CSF-1R-ECD) (comprising the extracellular subdomains D1-D5) (human, UniProt P07333 20-512)
T3 construct: Encoded by pCMV-preS-Fc-hCSF-1R-ECD (ECD, PreScission site, aa100-330 of human IgG1, 6xHis); also called hCSF-1R-ECD
Assay: as above

Binder | Binding to CSF-1R-ECD [RU]
B1 | 176
B2 | 120
B3 | 147
B4 | 2710

Biological target: T1, human wildtype CSF-1R (wt CSF-1R), …
Assay: cell-based or functional assay
Remark: another data set of the same source

Binder | IC50 of inhibition of the survival of human monocytes (separate test series) [µg/mL]
B5 | 0.04
B6 | 0.09

Changes are numbered by the printed parent chain.
